From article PMC5161541 (Nuclear medicine and biology, 2016)

Amino acid sequences for entries named in this document (tags omitted).
UniProt O55242, whole entry: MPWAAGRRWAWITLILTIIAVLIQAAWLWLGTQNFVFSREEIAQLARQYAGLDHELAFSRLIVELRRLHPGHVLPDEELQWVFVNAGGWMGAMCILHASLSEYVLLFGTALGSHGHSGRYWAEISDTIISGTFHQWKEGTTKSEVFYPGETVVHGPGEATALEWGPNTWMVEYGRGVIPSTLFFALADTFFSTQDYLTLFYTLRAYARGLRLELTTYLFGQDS

Target: sites labeled by [125I]-E-IA-BF-PIPZE (σ1 receptors) (Mus musculus, UniProt O55242)
Format: binding
Conditions: means ± SEM (n = 3 – 6); for IC50 / Ki: 0.1 nM [125I]-E-IA-BF-PIPZE; for IC50: 37 °C, 180 min; for Ki: Cheng-Prusoff

| Substance | IC50 | Ki | Hill (nH) |
| --- | --- | --- | --- |
| (+)-SKF10,047 | 43.2 ± 3.5 nM | 28.8 ± 2.4 nM | 1.1 ± 0.1 |
| (−)-SKF10,047 | 7090 ± 519 nM | 5000 ± 366 nM | 1.3 ± 0.3 |
